## Curated experimental data: properties

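The OPERA project collected these measurements from public sources as training and test data for property models. A listed value is a point estimate from one report or more. Method, purity and exact conditions of the single measurements are not given. Where a salt, mixture or single isomer is drawn, the source does not say that exactly this form was tested. Some upstream entries may be estimates or bounds without being marked so.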

Melting points are in °C.
The boiling point refers to atmospheric pressure (760 mmHg), by the definition of the set.
logP is the log10 of the octanol-water partition coefficient; higher is more lipophilic.
Water solubility is log10 of mol/L, nominally at 25 °C; higher is more soluble.
Vapor pressures (log10 mmHg) refer to near room temperature, 15 to 30 °C; higher is more volatile.
The unbound fraction in human plasma runs from 0 (all bound) to 1 (all free).
Clint is human hepatic intrinsic clearance in µL/min per million cells; 0 means that no clearance was seen.
Cells with "–" have no entry in this list.

mp (°C)	BP (°C)	logP (octanol/water)	log S (log10 mol/L)	log vapor pressure (log10 mmHg)	plasma fu	hepatic Clint (µL/min/10^6 cells)	structure (SMILES)	name
–	371.1	5.5	-6.722	-9.62	–	–	CCCCOC(=O)NC1CCC(CC2CCC(NC(=O)OCCCC)CC2)CC1 (configuration not stated)	4,4'-Methylenebis(N-butoxycarbonylcyclohexanamine)
–	–	2.8	-2.1	-7.599	–	–	CCc1ccc(B(O)O)cc1	4-Ethylphenylboronic acid
–	–	–	-8.191	1.6	–	–	FC(F)=C(F)OC(F)(F)C(F)(OC(F)(F)C(F)(F)C(F)(F)F)C(F)(F)F (configuration not stated)	Perfluoro(2-propoxypropyl vinyl ether)
216.8	–	0.086	-1.882	-9.215	–	–	O=C(O)COc1ccc(Cl)c2cccnc12	2-[(5-Chloro-8-quinolinyl)oxy]acetic acid
–	–	–	-3.34	-0.777	–	–	COC(OC)C(C)(C)CC=C(C)C	6,6-Dimethoxy-2,5,5-trimethylhex-2-ene
–	–	–	-0.664	-1.699	–	–	OCCOCc1ccccc1	Ethanol, 2-(phenylmethoxy)-
197.8	–	–	-5.86	-9.772	–	–	CCC(C)n1ncn(-c2ccc(N3CCN(c4ccc(OC)cc4)CC3)cc2)c1=O (configuration not stated)	–
–	–	0.96	-2.79	-7.347	–	–	NS(=O)(=O)c1ccccc1C(F)(F)F	2-(Trifluoromethyl)benzenesulfonamide
238	357.5	1.3	-3.176	-6.979	–	–	Cc1ccc2c(=O)[nH]c(=O)oc2c1	7-Methyl-2H-1,3-benzoxazine-2,4(3H)-dione
–	–	1.7	-3.285	-7.824	–	–	O=C(N[C@H](C(=O)O)C1CCCCC1)OCc1ccccc1	(2S)-{[(Benzyloxy)carbonyl]amino}(cyclohexyl)acetic acid
-0.075	–	1	–	-0.523	–	–	COC(C=CC(OC)OC)OC	1,1,4,4-Tetramethoxy-2-butene
–	–	–	–	–	0.319	5.55	CC(=O)S[C@H](C(=O)N[C@H]1Cc2ccccc2[C@H]2CCC[C@@H](C(=O)O)N2C1=O)C(C)C	Ilepatril
–	–	-1.6	–	-7.878	–	–	CCN(CCO)c1ccc(/N=N/c2sc3cc(OC)ccc3[n+]2C)cc1.COS(=O)(=O)[O-]	C.I. Basic Blue 41
3.85	–	–	–	-2.881	–	–	C=COC(=O)CCCCCCCCCCC	Dodecanoic acid, ethenyl ester
–	–	0.104	–	-8.539	–	–	Cl.Cl.Nc1ccc(OCCO)c(N)c1	Ethanol, 2-(2,4-diaminophenoxy)-, hydrochloride (1:2)
–	–	2.207	-2.743	–	–	–	O=S(=O)(Cl)c1ccc2ccccc2c1	2-Naphthalenesulfonyl chloride
224.4	–	–	-4.316	–	–	–	CCOc1ncc(C)c2c1C(c1ccc(C#N)cc1OC)C(C(N)=O)=C(C)N2 (configuration not stated)	–
–	–	4.3	-3.466	-1.481	–	–	CC1(C)C2CC=C(CCC=O)C1C2 (configuration not stated)	3-(6,6-Dimethylbicyclo[3.1.1]hept-2-en-2-yl)propanal
–	–	1.7	-2.82	–	–	–	N=C(N)NC(=O)Cc1c(Cl)cccc1Cl	Guanfacine
-15.2	–	1.83	-1.95	0.623	–	–	Fc1cccc(C(F)(F)F)n1	2-Fluoro-6-(trifluoromethyl)pyridine
257	–	–	-7.464	–	–	–	O=c1c2cccc3cccc(c32)c2nc3cccc4cccc(c43)n12	14H-Benz[4,5]isoquino[2,1-a]perimidin-14-one
–	–	0.67	–	-12.09	–	–	COc1ccc(CCC(=O)c2c(O)cc(O[C@@H]3O[C@H](CO)[C@@H](O)[C@H](O)[C@H]3O[C@@H]3O[C@@H](C)[C@H](O)[C@@H](O)[C@H]3O)cc2O)cc1O	Neohesperidin dihydrochalcone
–	–	–	-5.14	-8.433	–	–	O=C(NCc1ncc(C(F)(F)F)cc1Cl)c1c(Cl)cccc1Cl	Fluopicolide
–	–	0.96	–	-5.254	–	–	OCCN(CCO)c1ccccc1	N-Phenyl diethanolamine

A selection of 4 entries from above:

{"smiles": "N=C(N)NC(=O)Cc1c(Cl)cccc1Cl", "name": "Guanfacine", "logP (octanol/water)": "1.7", "log S (log10 mol/L)": "-2.82"}
{"smiles": "C=COC(=O)CCCCCCCCCCC", "name": "Dodecanoic acid, ethenyl ester", "mp (°C)": "3.85", "log vapor pressure (log10 mmHg)": "-2.881"}
{"smiles": "Cl.Cl.Nc1ccc(OCCO)c(N)c1", "name": "Ethanol, 2-(2,4-diaminophenoxy)-, hydrochloride (1:2)", "logP (octanol/water)": "0.104", "log vapor pressure (log10 mmHg)": "-8.539"}
{"smiles": "O=S(=O)(Cl)c1ccc2ccccc2c1", "name": "2-Naphthalenesulfonyl chloride", "logP (octanol/water)": "2.207", "log S (log10 mol/L)": "-2.743"}

Data: OPERA 2.9 data sets, kmansouri/OPERA on GitHub.